Test: in vivo
Details: mouse, iv

Q: With `NC[C@@H]1CC[C@@H](N)[C@@H](O[C@H]2[C@H](O)[C@@H](O[C@H]3O[C@H](CO)[C@@H](O)[C@H](N)[C@H]3O)[C@H](N)C[C@@H]2N)O1` [DKB, 3',4'-dideoxykanamycin B] as the compound, how does the LD50 read?
A: The LD50 was 100 to 120 mg/kg.
